The values below come from patent US20260108465A1 (Belhaven BioPharma Inc., priority 2024, published 2026).

The nature of the data set: Study 101: plasma epinephrine pharmacokinetics. It is filed as in vivo, human. On the set-up: unit not given beside the values. The note with it: 0.5 mg IM. On the procedure: Each patient was provided each treatment of the trial with 72-hour washout periods between each treatment, beginning with a 3.5 mg intranasal dose, followed by a 0.3 mg intramuscular dose, followed by a 0.5 mg intramuscular dose, and concluding with a 5.5 mg intranasal dose, with a safety follow-up performed 3 to 5 days after the final dose was administered. The primary endpoints of the study were pharmacokinetic measurements and assessments of comparative bioavailability, while the secondary endpoints were safety concerns and pharmacodynamic assessments.

Turning to `CNC[C@H](O)c1ccc(O)c(O)c1` [Epinephrine IM, epinephrine], the “Cmax (GeoMean)” value was 382.3.
